Source: article PMC2866327, “Designed Inhibitors of Insulin-Degrading Enzyme Regulate the Catabolism and Activity of Insulin” (PLoS ONE, 2010)

Amino acid sequences for entries named in this document (tags omitted).
UniProt P14735, whole entry: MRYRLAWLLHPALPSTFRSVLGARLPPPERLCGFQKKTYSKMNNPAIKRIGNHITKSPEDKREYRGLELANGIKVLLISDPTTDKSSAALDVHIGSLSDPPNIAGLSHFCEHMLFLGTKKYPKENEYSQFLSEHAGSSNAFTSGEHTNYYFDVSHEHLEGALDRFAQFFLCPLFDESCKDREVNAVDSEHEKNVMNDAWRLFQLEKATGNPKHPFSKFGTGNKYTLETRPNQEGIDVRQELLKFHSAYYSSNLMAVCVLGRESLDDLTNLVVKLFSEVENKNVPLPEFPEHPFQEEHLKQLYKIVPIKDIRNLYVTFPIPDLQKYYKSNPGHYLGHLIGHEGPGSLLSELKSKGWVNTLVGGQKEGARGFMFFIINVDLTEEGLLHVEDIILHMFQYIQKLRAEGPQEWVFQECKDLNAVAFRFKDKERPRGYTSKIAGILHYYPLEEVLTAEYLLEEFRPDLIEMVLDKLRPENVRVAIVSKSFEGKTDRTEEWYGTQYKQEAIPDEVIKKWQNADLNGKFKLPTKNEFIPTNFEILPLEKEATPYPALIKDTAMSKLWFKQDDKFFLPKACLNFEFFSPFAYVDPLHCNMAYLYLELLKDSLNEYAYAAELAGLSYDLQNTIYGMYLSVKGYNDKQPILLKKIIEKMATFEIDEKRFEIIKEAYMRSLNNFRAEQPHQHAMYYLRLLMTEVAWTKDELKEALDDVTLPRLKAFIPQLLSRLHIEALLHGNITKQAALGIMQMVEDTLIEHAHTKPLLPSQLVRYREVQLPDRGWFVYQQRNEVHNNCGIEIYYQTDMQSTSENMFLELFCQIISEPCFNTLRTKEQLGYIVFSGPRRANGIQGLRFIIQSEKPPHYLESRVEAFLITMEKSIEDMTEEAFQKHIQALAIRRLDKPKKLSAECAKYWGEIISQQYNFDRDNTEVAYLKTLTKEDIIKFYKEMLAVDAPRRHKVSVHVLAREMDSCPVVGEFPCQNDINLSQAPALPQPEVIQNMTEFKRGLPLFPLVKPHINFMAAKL

Experiments:
[1] = system: MMP-9; details: read-out: target IC50; best known target MMP-9; no reference given; cited from earlier work
[2] = target: recombinant human IDE (Homo sapiens, UniProt P14735); test: In vitro IDE enzymatic assay (hydrolysis of FRET1, SP1, FAβB, 125I-insulin or insulin by HTRF); details: read-out: IDE IC50; commercially available hydroxamic acids

| SMILES | IC50 [1] [µM] | IC50 [2] [µM] |
| --- | --- | --- |
| COc1ccc(S(=O)(=O)N2CC(C)(C)CN(S(=O)(=O)c3ccc(OC)cc3)C2C(=O)NO)cc1 | 0.0027 | > 100 |
| CCN(CC)Cc1cc(C)c(N(Cc2ccccc2)S(=O)(=O)c2ccc(OC)cc2)c(C(=O)NO)c1 |  | > 100 |
